Experimental data as given in US11246873B2, “Directed differentiation of oligodendrocyte precursor cells to a myelinating cell fate” (The Scripps Research Institute, priority 2011, dated 2022).

Assays:
[1] = test system: M1/M3 muscarinic receptors; conditions: OPCs; for effect on carbachol induced Ca2+ influx: carbachol 100 uM, compound at EC90
Description: Following 6 days of treatment, cells were fixed and stained for MBP. Plates were imaged using the OPERA high content screening system and MBP staining was quantified as described. […] OPCs were plated in 384-well plates at 5000 cells per well in media containing basal PDGF-αα. Cells were equilibrated with Ca^2+ sensitive Fluo-3AM® dye in HBSS for 30 min. […] Ca^2+ influx was immediately measured using the FLIPR TETRA® system.
(A-C) OPCs were plated in differentiation media for 12 hours. […] (C) Atropine, a muscarinic antagonist, serves as a positive control. (D) OPCs were plated in differentiation medium for 12 hours. A cAMP-HTRF assay was performed using the cAMP dynamic 2 kit. […] IBMX was added as a cAMP stabilizer, and forskolin was a positive control.

[2] = test system: rat optic nerve derived OPCs; assay: High content imaging assay of OPC differentiation (MBP immunostaining, OPERA); assay type: cell-based
Description: FIG. 1A-C. […] The calculated EC50 values were determined using appropriate Graphpad Prism 5.0 curve fitting software. […] OPCs were plated in 384 well plates at 1000 cells per well in OPC media containing basal PDGF-αα (2 ng/mL) and treated with serial dilutions of compounds. Following six days of compound treatment, cells were fixed and subjected to immunofluorescence analysis using anti-myelin basic protein (MBP) antibody. Image acquisition and quantification of MBP staining was performed using the OPERA imaging system.
FIG. 11A-B. Screen to identify inducers of OPC differentiation. (A) OPCs were maintained as proliferating A2B5-positive cells under basal growth conditions (Neurobasal medium, B27 supplement without Vitamin A, non-essential amino acids, L-Glutamine, 30 ng/ml PDGF). OPCs were plated in basal differentiation media (Neurobasal medium, B27 supplement without Vitamin A, non-essential amino acids, L-Glutamine, 2 ng/ml PDGF), treated with DMSO (<0.1%) or thyroid hormone (1 uM), fixed after 6 days in culture, and stained using antibodies for CNP, O4, or MBP. […]
FIG. 12A-B. Primary hit confirmation. […] (EC50) is defined as the concentration that results in a half maximal increase in the percentage of total cells that express MBP as detected by immunostaining. […]

PLP induced EAE mice = conditions: compounds 10 mg/kg i.p. daily from first EAE symptoms, mycophenolate 20 mg/kg from day 14
Description: (A-E) SJL mice were immunized with proteolipid peptide (PLP) and pertussis toxin and monitored daily with scoring on the standard clinical EAE scale (0-5). Compounds were administered daily for the duration of the study in saline at 10 mg/kg via intra-peritoneal injection (0.1 ml), starting on the day of the appearance of clinical EAE symptoms (day 10). […] Mean clinical EAE score and standard error of mean (SEM) are shown for each study group.
FIG. 25. […] EAE was induced in mice using PLP and pertussis toxin. […] Prophylactic dosing is defined as administration of compound commenced on the day of PLP injection. Error bars indicate standard deviation of the mean within each group of 8 mice.
(A-F) EAE was induced in mice using PLP and pertussis toxin. […] Error bars indicate standard deviation of the mean within each group of 8 mice.
(A-F) EAE was induced in mice by injecting PLP in complete Freund's adjuvant (CFA) and pertussis toxin, and the animals were scored daily for clinical severity of disease on a scale of 0-5. […] Error bars indicate standard deviation of the mean within each group of 8-10 mice.
10 week old SJL mice were immunized with PLP emulsion and pertusis toxin to induce EAE. […] Compounds were administered daily via intraperitoneal injection of 100 ul in sterile saline at 10 mg/kg alone or in combination with mycophenolate motefil in sterile saline at pH 5 at 20 mg/kg. […] The mice were scored daily on a standard EAE scale of 0-5.
This model is most commonly used to evaluate the potential efficacy of immunomodulatory agents, but can also be used to determine the effectiveness of promyelinating agents that function by enhancing OPC differentiation (M. Fernandez et al., Proc Natl Acad Sci U.S.A, 101, 16363 (2004); X. Lee et al., J Neurosci, 27, 220 (2007); reviewed in R. J. Franklin, C. Ffrench-Constant, Nat Rev Neurosci, 9, 839 (2008)). […] We next evaluated efficacy when the drug is dosed therapeutically, by starting daily injections at the first sign of disease onset. […]

In the case of `C[N+](C)(C)CCOC(N)=O` [Carbachol, carbachol], the “intracellular Ca2+ levels” value ([1]; calcium flux measured for 186 seconds) is reported as “dose dependent increase”.
`CCCN1CCC[C@@H]2Cc3n[nH]cc3C[C@H]21` [Quinpirole, quinpirole] was tested, and the “induction of OPC differentiation (MBP staining)” value [2] was “did not induce significant differentiation”.
For `CN1CCC[C@@H]1CCO[C@](C)(c1ccccc1)c1ccc(Cl)cc1` [clemastine], the “effect on carbachol induced Ca2+ influx” value [1] was “inhibit” and the “clinical severity versus vehicle, dosing after disease onset (therapeutic mode)” value (“clinical severity versus vehicle, dosing” for short) (PLP induced EAE mice) was “significantly decreased clinical severity in the relapse phase”.
`CN1[C@@H]2CC[C@H]1C[C@@H](OC(c1ccccc1)c1ccccc1)C2` [benztropine] was tested, and the “effect on carbachol induced Ca2+ influx” value [1] was “inhibits carbachol induced calcium influx”, the “effect on carbachol induced Ca2+ influx” value ([1]; listed as Benztropine) was “dose dependently blocked” and the “effect on carbachol induced Ca2+ influx” value ([1]; listed as benzatropine) was “inhibit”. The “clinical severity versus vehicle, dosing” value (PLP induced EAE mice) was “significantly reduced the intensity of relapse; also recorded: significantly decreased clinical severity in the relapse phase; also recorded: significant decreases in clinical severity in remission phases observed and the occurrence of relapse again virtually eliminated” and the “clinical severity versus vehicle, dosing” value (PLP induced EAE mice; listed as Benztropine) was “decreased the clinical severity of disease”.

“Also recorded” adds a separate entry of the source. Like-named read-outs stand apart in the source and are kept apart here.
